Molecular target: recombinant human S1P1 receptor (Homo sapiens, UniProt P21453)
Assay: GTPγS assay to determine EC50 values
Assay type: biochemical
Settings: agonist concentration inducing 50% of maximal specific 35S-GTPγS binding; membranes of CHO cells expressing recombinant human S1P1
Method: GTPγS Assay to Determine EC50 Values
GTPγS binding assays are performed in 96 well microtiter plates (Nunc, 442587) in a final volume of 200 μl, using membrane preparations of CHO cells expressing recombinant human S1P1 receptor. Assay conditions are 20 mM Hepes (Fluka, 54461), 100 mM NaCl (Fluka, 71378), 5 mM MgCl2 (Fluka, 63064), 0.1% BSA (Calbiochem, 126609), 1 μM GDP (Sigma, G-7127), 2.5% DMSO (Fluka, 41644), 50 pM ^35S-GTPγS (Amersham Biosciences, SJ1320). The pH is 7.4. Test compounds are dissolved and diluted in 100% DMSO and pre-incubated at room temperature for 30 min in 150 μl of the above assay buffer, in the absence of ^35S-GTPγS. After addition of 50 μl of ^35S-GTPγS, the assay is incubated for 1 h at rt. The assay is terminated by transfer of the reaction mixture to a Multiscreen plate (Millipore, MAHFC1H60) using a cell harvester from Packard Biosciences, and the plates are washed with ice-cold 10 mM Na2HPO4/NaH2PO4 (70%/30%), dried, sealed at the bottom and, after addition of 25 μl MicroScint20 (Packard Biosciences, order #6013621), sealed on the top. Membrane-bound ^35S-GTPγS is measured with a TopCount from Packard Biosciences.
Specific binding is determined by subtracting non-specific binding from maximal binding. Maximal binding is the amount of cpm bound to the Multiscreen plate in the presence of 10 μM of S1P. […]

Amino acid sequences for entries named in this document (tags omitted).
UniProt P21453, whole entry: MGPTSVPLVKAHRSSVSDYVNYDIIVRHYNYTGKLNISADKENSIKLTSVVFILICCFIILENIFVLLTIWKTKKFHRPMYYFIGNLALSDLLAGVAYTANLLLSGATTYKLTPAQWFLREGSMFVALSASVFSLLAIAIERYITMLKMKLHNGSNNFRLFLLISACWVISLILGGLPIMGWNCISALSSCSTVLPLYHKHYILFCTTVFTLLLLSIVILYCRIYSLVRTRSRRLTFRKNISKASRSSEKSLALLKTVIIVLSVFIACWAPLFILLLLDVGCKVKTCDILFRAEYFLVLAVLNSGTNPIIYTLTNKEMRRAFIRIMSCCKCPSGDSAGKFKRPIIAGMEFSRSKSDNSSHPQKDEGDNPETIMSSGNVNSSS

CCc1cc(-c2noc(-c3cc(C)c(CN(C)C)s3)n2)cc(C)c1OC[C@@H](O)CNC(=O)CO [Example 51]
EC50: 1 nM

— patent US8148410B2, “Thiophene derivatives as agonists of S1P1/EDG1” (Actelion Pharmaceuticals Ltd., priority 2007, dated 2012)
